Test results taken from patent US10087187B2, “Imidazopyridazine derivatives as PI3KB inhibitors” (Janssen Pharmaceutica NV, priority 2014, dated 2018).

Columns and labels:
[1] = test system: Akt phosphorylated at Ser473 in PC-3 cells; assay: Cellular assay: phosphorylation of Akt (Ser473) in PC-3 cells, MSD ELISA; conditions: read-out: IC50 pAkt_S473, 60 min incubation with compound
[2] = test system: Akt phosphorylated at Thr308 in PC-3 cells; assay: Cellular assay: phosphorylation of Akt (Thr308) in PC-3 cells, MSD ELISA; conditions: read-out: IC50 pAkt_Thr308, 60 min incubation with compound

SMILES	IC50 [1]	IC50 [2]
Cc1c(Cc2c(CO)nc3c(N)cc(N4CCOC(CO)C4)nn23)cccc1C(F)(F)F (single isomer, unassigned) [Compound 66]	> 513 nM	513 nM
Cc1c(Cc2c(CO)nc3c(N)cc(N4CCOC(CO)C4)nn23)cccc1C(F)(F)F (single isomer, unassigned) [Compound 65]	79 nM	43 nM
